Measured values from US9926281B2 (priority 2014, dated 2018).

By UniProt entry, the sequences of proteins in these tests, tags left out. Residues count along the entry.
UniProt P08253, 110-660: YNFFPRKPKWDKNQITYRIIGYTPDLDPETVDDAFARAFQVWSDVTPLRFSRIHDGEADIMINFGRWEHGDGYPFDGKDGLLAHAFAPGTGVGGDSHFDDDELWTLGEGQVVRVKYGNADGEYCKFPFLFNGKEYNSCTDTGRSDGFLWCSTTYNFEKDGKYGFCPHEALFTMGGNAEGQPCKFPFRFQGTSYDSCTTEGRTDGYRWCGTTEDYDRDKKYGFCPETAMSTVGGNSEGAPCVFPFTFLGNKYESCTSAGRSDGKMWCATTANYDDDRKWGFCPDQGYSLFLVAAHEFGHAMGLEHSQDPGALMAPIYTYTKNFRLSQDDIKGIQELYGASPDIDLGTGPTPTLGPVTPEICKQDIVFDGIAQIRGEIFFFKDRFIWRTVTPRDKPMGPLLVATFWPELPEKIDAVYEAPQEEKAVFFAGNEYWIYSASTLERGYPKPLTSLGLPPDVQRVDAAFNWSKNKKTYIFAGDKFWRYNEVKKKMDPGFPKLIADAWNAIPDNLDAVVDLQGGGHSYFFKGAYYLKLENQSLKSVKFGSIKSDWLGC
UniProt Q6TY19, 24-928 limits assumed: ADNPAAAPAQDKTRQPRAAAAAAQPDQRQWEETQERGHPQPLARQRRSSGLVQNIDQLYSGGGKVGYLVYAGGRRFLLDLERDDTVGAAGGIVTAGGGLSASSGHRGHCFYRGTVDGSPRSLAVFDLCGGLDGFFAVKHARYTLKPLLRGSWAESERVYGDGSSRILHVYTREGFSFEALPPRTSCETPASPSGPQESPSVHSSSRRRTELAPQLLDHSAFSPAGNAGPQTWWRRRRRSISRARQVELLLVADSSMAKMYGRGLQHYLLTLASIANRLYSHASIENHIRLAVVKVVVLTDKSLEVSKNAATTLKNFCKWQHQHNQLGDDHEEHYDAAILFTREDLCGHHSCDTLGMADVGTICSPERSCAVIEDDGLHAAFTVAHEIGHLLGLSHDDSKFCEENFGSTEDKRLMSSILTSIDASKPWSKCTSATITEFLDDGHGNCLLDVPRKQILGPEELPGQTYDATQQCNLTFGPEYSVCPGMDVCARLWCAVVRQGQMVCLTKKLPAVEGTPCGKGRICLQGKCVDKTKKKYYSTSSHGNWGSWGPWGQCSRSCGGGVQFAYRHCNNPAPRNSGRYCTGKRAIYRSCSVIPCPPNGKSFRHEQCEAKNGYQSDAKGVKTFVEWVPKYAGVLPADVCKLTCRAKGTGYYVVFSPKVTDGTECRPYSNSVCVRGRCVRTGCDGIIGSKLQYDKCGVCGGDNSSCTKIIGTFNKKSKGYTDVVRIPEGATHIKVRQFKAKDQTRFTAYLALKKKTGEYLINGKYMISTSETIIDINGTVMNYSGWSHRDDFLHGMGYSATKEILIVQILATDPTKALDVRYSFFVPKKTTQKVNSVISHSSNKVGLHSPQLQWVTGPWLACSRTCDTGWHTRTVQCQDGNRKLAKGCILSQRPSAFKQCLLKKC
UniProt Q9UNA0, 262-930: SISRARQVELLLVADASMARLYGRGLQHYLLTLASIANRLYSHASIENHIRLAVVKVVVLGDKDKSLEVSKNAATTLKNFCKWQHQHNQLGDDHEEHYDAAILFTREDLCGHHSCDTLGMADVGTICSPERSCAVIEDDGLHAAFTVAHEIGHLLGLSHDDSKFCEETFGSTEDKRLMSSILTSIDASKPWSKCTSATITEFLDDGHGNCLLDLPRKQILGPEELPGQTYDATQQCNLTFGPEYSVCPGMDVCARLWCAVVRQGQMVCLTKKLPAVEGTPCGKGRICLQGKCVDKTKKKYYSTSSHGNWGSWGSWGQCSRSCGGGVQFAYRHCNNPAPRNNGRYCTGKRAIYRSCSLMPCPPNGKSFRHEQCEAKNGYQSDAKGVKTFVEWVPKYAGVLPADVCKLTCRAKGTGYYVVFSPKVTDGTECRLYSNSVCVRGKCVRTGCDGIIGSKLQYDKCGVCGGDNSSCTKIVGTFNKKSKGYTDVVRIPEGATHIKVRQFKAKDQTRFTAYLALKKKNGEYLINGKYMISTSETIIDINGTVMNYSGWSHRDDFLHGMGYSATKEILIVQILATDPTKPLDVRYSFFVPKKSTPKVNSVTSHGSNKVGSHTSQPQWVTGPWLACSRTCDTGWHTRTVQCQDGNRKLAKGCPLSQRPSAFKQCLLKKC
UniProt P78536, whole entry, looked up, stated change not applied: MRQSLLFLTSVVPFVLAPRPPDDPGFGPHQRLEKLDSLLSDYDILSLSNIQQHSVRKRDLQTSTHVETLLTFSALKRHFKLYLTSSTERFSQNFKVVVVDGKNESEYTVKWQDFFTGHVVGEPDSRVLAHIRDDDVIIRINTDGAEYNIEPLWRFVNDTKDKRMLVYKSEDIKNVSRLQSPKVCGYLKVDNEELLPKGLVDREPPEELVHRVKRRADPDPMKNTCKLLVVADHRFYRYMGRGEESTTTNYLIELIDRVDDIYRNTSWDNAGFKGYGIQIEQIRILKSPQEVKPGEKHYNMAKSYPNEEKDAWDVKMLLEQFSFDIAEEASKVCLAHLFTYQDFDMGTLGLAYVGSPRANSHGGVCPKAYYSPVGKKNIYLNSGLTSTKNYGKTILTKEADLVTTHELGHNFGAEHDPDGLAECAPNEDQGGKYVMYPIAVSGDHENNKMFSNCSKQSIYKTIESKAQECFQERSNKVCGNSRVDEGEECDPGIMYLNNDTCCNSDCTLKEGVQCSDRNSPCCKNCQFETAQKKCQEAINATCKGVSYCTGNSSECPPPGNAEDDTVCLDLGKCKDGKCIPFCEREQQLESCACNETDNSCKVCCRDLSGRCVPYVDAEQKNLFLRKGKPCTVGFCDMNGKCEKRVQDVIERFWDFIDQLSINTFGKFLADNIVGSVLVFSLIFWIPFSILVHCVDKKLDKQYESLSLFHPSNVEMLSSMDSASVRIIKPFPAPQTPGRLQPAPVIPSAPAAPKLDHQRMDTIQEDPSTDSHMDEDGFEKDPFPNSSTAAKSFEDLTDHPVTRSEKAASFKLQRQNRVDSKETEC

How the values were obtained:
human MMP2 = human MMP2 (Homo sapiens (Human), UniProt P08253); settings: read-out: hMMP-2 potency IC50
rnADAMTS-5 (1-564-6H) = rnADAMTS-5 (1-564-6H) (Rattus norvegicus, UniProt Q6TY19); settings: read-out: Rat ADAMTS-5 potency IC50
human ADAMTS-5 [1] = molecular target: T1, human ADAMTS-5 (Homo sapiens (Human), UniProt Q9UNA0); settings: read-out: hADAMTS-5 potency IC50
human TACE = human TACE (Homo sapiens (Human), UniProt P78536); settings: read-out: TACE potency IC50
human ADAMTS-5 [2] = molecular target: T1, human ADAMTS-5; settings: read-out: hADAMTS-5 potency IC50; remark: listed apart in the source

Row | Compound | IC50 (human MMP2) | further results
1 | Cc1ccc(Cl)cc1N1CCN(C(=O)CCC2(C(C)C)NC(=O)NC2=O)CC1 (stereo not drawn) [compound 33, 5-[3-[4-(5-chloro-2-methyl-phenyl)piperazin-1-yl]-3-oxo-propyl]-5-isopropyl-imidazolidine-2,4-dione] | > 20000 nM | –
2 | Cc1cccc(N2CCN(C(=O)CCC3(c4ccccc4)NC(=O)NC3=O)CC2)c1C (stereo not drawn) [compound 8, 5-[3-[4-(2,3-dimethylphenyl)piperazin-1-yl]-3-oxo-propyl]-5-phenyl-imidazolidine-2,4-dione] | > 16700 nM | –
3 | Cc1ccccc1N1CCN(C(=O)CCC2(c3ccccc3)NC(=O)NC2=O)CC1 (stereo not drawn) [compound 7, 5-[3-[4-(o-tolyl)piperazin-1-yl]-3-oxo-propyl]-5-phenyl-imidazolidine-2,4-dione] | > 16700 nM | –
4 | CN(C)Cc1ccc(C2(CCC(=O)N3CCN(c4cccc(Cl)c4)CC3)NC(=O)NC2=O)cc1 (stereo not drawn) [compound 83, 5-[3-[4-(3-chlorophenyl)piperazin-1-yl]-3-oxo-propyl]-5-[4-(dimethylaminomethyl)phenyl]imidazolidine-2,4-dione] | – | IC50 (rnADAMTS-5 (1-564-6H)): 436 nM; IC50 (human ADAMTS-5 [1]): 423 nM
5 | Cc1ccc(Cl)cc1N1CCN(C(=O)CCC2(C)NC(=O)NC2=O)CC1 (stereo not drawn) [compound 16, 5-[3-[4-(5-chloro-2-methyl-phenyl)piperazin-1-yl]-3-oxo-propyl]-5-methyl-imidazolidine-2,4-dione] | > 16700 nM | –
6 | Cc1cccc(N2CCN(C(=O)CCC3(C)NC(=O)NC3=O)CC2)c1C (stereo not drawn) [compound 11, 5-[3-[4-(2,3-dimethylphenyl)piperazin-1-yl]-3-oxo-propyl]-5-methyl-imidazolidine-2,4-dione] | > 20000 nM | –
7 | Cc1c(Cl)cccc1N1CCN(C(=O)CCC2(C)NC(=O)NC2=O)CC1 (stereo not drawn) [compound 18, 5-[3-[4-(3-chloro-2-methyl-phenyl)piperazin-1-yl]-3-oxo-propyl]-5-methyl-imidazolidine-2,4-dione] | > 20000 nM | –
8 | CC(CC1(c2ccccn2)NC(=O)NC1=O)C(=O)N1CCN(c2ccc(F)c(Cl)c2)[C@@H](C)C1 (stereo partly drawn) [compound 437, 5-(3-((S)-4-(3-chloro-4-fluorophenyl)-3-methylpiperazin-1-yl)-2-methyl-3-oxopropyl)-5-(pyridin-2-yl)imidazolidine-2,4-dione] | – | IC50 (human TACE): 2130 nM
9 | Cc1ccc(Cl)cc1N1CCN(C(=O)CCC2(c3ccccc3)NC(=O)NC2=O)CC1 (stereo not drawn) [compound 24, 5-[3-[4-(5-chloro-2-methyl-phenyl)piperazin-1-yl]-3-oxo-propyl]-5-phenyl-imidazolidine-2,4-dione] | > 20000 nM | –
10 | O=C1NC(=O)C(CCC(=O)N2CCN(c3ccc4ccccc4c3)CC2)(c2ccccc2)N1 (stereo not drawn) [compound 9, 5-[3-[4-(2-naphthyl)piperazin-1-yl]-3-oxo-propyl]-5-phenyl-imidazolidine-2,4-dione] | 271 nM | –
11 | CC(CC1NC(=O)NC1=O)C(=O)N1CCN(c2cc(Cl)cc(Cl)c2)CC1 (stereo not drawn) [compound 200, 5-[3-[4-(3,5-dichlorophenyl)piperazin-1-yl]-2-methyl-3-oxo-propyl]imidazolidine-2,4-dione] | – | IC50 (human TACE): 1060 nM
12 | O=C1NC(=O)C(CCC(=O)N2CCN(c3ccc(Cl)c(F)c3)CC2)(c2ccccc2)N1 (stereo not drawn) [compound 10, 5-[3-[4-(4-chloro-3-fluoro-phenyl)piperazin-1-yl]-3-oxo-propyl]-5-phenyl-imidazolidine-2,4-dione] | 26 nM | –
13 | Cc1ccccc1N1CCN(C(=O)CCC2(C)NC(=O)NC2=O)CC1 (stereo not drawn) [compound 12, 5-methyl-5-[3-[4-(o-tolyl)piperazin-1-yl]-3-oxo-propyl]imidazolidine-2,4-dione] | > 20000 nM | –
14 | O=C1NC(=O)C(CCC(=O)N2CCN(c3cccc(Cl)c3)CC2)(c2cccnc2)N1 (stereo not drawn) [compound 56, 5-[3-[4-(3-chlorophenyl)piperazin-1-yl]-3-oxo-propyl]-5-(3-pyridyl)imidazolidine-2,4-dione] | 140 nM | –
15 | O=C1NC(=O)C(CCC(=O)N2CCN(c3ccc4cnccc4c3)CC2)(c2ccccc2)N1 (stereo not drawn) [compound 14, 5-[3-[4-(6-isoquinolyl)piperazin-1-yl]-3-oxo-propyl]-5-phenyl-imidazolidine-2,4-dione] | 38 nM | –
16 | Cc1ccc(C)c(N2CCN(C(=O)CCC3(C)NC(=O)NC3=O)CC2)c1 (stereo not drawn) [compound 39, 5-[3-[4-(2,5-dimethylphenyl)piperazin-1-yl]-3-oxo-propyl]-5-methyl-imidazolidine-2,4-dione] | > 20000 nM | –

Row | Compound | IC50 (human MMP2) | further results
17 | CC(CC1(c2ccccn2)NC(=O)NC1=O)C(=O)N1CCN(c2ccc(F)c(Cl)c2)[C@@H](C)C1 (stereo partly drawn) [compound 245, 5-[3-[(3S)-4-(3-chloro-4-fluoro-phenyl)-3-methyl-piperazin-1-yl]-2-methyl-3-oxo-propyl]-5-(2-pyridyl)imidazolidine-2,4-dione] | – | IC50 (human TACE): 2130 nM
18 | O=C1NC(=O)C(CCC(=O)N2CCN(c3ccc4occc4c3)CC2)(c2ccccc2)N1 (stereo not drawn) [compound 25, 5-[3-[4-(benzofuran-5-yl)piperazin-1-yl]-3-oxo-propyl]-5-phenyl-imidazolidine-2,4-dione] | 101 nM | –
19 | CC1(CCC(=O)N2CCN(c3ccc(F)c(Cl)c3)CC2)NC(=O)NC1=O (stereo not drawn) [compound 52, 5-[3-[4-(3-chloro-4-fluoro-phenyl)piperazin-1-yl]-3-oxo-propyl]-5-methyl-imidazolidine-2,4-dione] | 2910 nM | –
20 | Cc1ccccc1N1CCN(C(=O)CC[C@@]2(c3ccccc3)NC(=O)NC2=O)CC1 [compound 27, (5S)-5-[3-[4-(o-tolyl)piperazin-1-yl]-3-oxo-propyl]-5-phenyl-imidazolidine-2,4-dione] | > 10000 nM | –
21 | O=C1NC(=O)C(CCC(=O)N2CCN(c3ccccc3)CC2)(c2ccccc2)N1 (stereo not drawn) [compound 4, 5-[3-oxo-3-(4-phenylpiperazin-1-yl)propyl]-5-phenyl-imidazolidine-2,4-dione] | 259 nM | –
22 | Cc1c(Cl)cccc1N1CCN(C(=O)CCC2(c3ccccc3)NC(=O)NC2=O)CC1 (stereo not drawn) [compound 21, 5-[3-[4-(3-chloro-2-methyl-phenyl)piperazin-1-yl]-3-oxo-propyl]-5-phenyl-imidazolidine-2,4-dione] | > 20000 nM | –
23 | O=C1NC(=O)C(CCC(=O)N2CCN(c3cccnc3)CC2)(c2ccccc2)N1 (stereo not drawn) [compound 45, 5-[3-oxo-3-[4-(3-pyridyl)piperazin-1-yl]propyl]-5-phenyl-imidazolidine-2,4-dione] | > 4000 nM | –
24 | O=C1NC(=O)C(CCC(=O)N2CCN(c3ccc4scnc4c3)CC2)(c2ccccc2)N1 (stereo not drawn) [compound 26, 5-[3-[4-(1,3-benzothiazol-5-yl)piperazin-1-yl]-3-oxo-propyl]-5-phenyl-imidazolidine-2,4-dione] | 111 nM | –
25 | CN(C)CCC1(CCC(=O)N2CCN(c3cccc(Cl)c3)CC2)NC(=O)NC1=O (stereo not drawn) [compound 44, 5-[3-[4-(3-chlorophenyl)piperazin-1-yl]-3-oxo-propyl]-5-(2-dimethylaminoethyl)imidazolidine-2,4-dione] | 2950 nM | –
26 | O=C1NC(=O)C(CCC(=O)N2CCN(c3ccccc3Cl)CC2)(c2ccccc2)N1 (stereo not drawn) [compound 20, 5-[3-[4-(2-chlorophenyl)piperazin-1-yl]-3-oxo-propyl]-5-phenyl-imidazolidine-2,4-dione] | > 20000 nM | –
27 | Cc1cc(Cl)ccc1N1CCN(C(=O)CCC2(c3ccccc3)NC(=O)NC2=O)CC1 (stereo not drawn) [compound 13, 5-[3-[4-(4-chloro-2-methyl-phenyl)piperazin-1-yl]-3-oxo-propyl]-5-phenyl-imidazolidine-2,4-dione] | > 20000 nM | –
28 | O=C1NC(=O)C(CCC(=O)N2CCN(c3cccc(Cl)c3)CC2)(c2ccccc2)N1 (stereo not drawn) [compound 6, 5-[3-[4-(3-chlorophenyl)piperazin-1-yl]-3-oxo-propyl]-5-phenyl-imidazolidine-2,4-dione] | 379 nM | –
29 | CC(CC1NC(=O)NC1=O)C(=O)N1CCN(c2cc(Cl)cc(Cl)c2)CC1 (stereo not drawn) [compound 219, 5-[3-[4-(3,5-dichlorophenyl)piperazin-1-yl]-2-methyl-3-oxo-propyl]imidazolidine-2,4-dione] | – | IC50 (human TACE): 441 nM
30 | C[C@H]1CN(C(=O)CCC2(C3CC3)NC(=O)NC2=O)CCN1c1ccc2ncsc2c1 (stereo partly drawn) [compound 305, 5-[3-[(3S)-4-(1,3-benzothiazol-6-yl)-3-methyl-piperazin-1-yl]-3-oxo-propyl]-5-cyclopropyl-imidazolidine-2,4-dione] | – | IC50 (human ADAMTS-5 [2]): 674 nM
31 | CC1(CCC(=O)N2CCN(c3ccc(Cl)c(F)c3)CC2)NC(=O)NC1=O (stereo not drawn) [compound 49, 5-[3-[4-(4-chloro-3-fluoro-phenyl)piperazin-1-yl]-3-oxo-propyl]-5-methyl-imidazolidine-2,4-dione] | 83 nM | –
32 | Cc1ccccc1N1CCN(C(=O)CCC2(C(C)C)NC(=O)NC2=O)CC1 (stereo not drawn) [compound 32, 5-isopropyl-5-[3-[4-(o-tolyl)piperazin-1-yl]-3-oxo-propyl]imidazolidine-2,4-dione] | > 20000 nM | –

Read-outs that look alike come from different tables or passages of the source.
